# Ab-95 light chain CDR variants: yeast mating affinities

The measurements come from Engelhart et al. 2022 (doi:10.1038/s41597-022-01779-4) through the FLAb antibody collection.

Binding partner: SARS-CoV-2 spike HR2 peptide, sequence PDVDLGDISGINAS.

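The starting antibody came from a phage panning campaign against this peptide. Variants in AAYL52 differ from the parent at up to three CDR positions; double and triple changes were sampled at random. AlphaSeq pools MATa yeast showing the antibodies with MATalpha yeast showing the peptide. Binding brings cells together so that they mate, and sequencing counts the barcode pairs among the diploids. A regression on co-assayed BCL2-family reference pairs converts the normalised counts of each replicate to an apparent Kd. The assay was run in three technical replicates.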

Parent: Ab-95, a human scFv built as VH, three GGGGS repeats, VL. Only the CDRs of the light chain vary.
VH: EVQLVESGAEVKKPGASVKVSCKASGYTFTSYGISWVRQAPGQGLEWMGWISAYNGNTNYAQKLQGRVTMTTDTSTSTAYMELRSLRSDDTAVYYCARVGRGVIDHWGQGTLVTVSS
VL: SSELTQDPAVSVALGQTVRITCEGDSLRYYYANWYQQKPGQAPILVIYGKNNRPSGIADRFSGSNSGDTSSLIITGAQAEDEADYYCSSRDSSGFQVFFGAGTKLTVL

Positions count from residue 1 of the parent VL; E23I puts I in place of E. All variants listed here change E23 of the VL, counted from its first residue. Affinities are written as log10 Kd with Kd in nM; a lower number is a better binder. A mean of the replicates is given; it leaves out those without a signal. A pair that was not seen in that replicate is written "ND"; this usually means weak binding, but a binder can also be missed.

For E23I/L27Y/S88R, the assay gave 4.28, 3.51, ND (mean 3.90). The variant E23I/G24H/S92R gave 2.79, 2.84, 2.52 (mean 2.72). The variant E23I/G94D/F98K showed 4.69, ND, 4.13 (mean 4.41). The variant E23Y/D25T/P54W gave 3.96, 3.40, ND (mean 3.68). With E23I/D25H the result was 2.96, 3.25, 2.91 (mean 3.04). The variant E23C/L27C/Y30W gave 4.18, 4.81, ND (mean 4.50). The variant E23P/K50T/V97G showed 5.59, ND, 3.95 (mean 4.77).

For E23I/Y29R/Y30E, the assay gave 1.46, 1.47, 1.13 (mean 1.36). The variant E23T/S93C/Q96V showed 2.44, 2.64, 1.82 (mean 2.30). For E23Y/S26P, the assay gave 2.79, 2.35, 1.76 (mean 2.30). The variant E23F/S92N/S93G showed 2.92, 2.23, 2.98 (mean 2.71). With E23M/A32Y/G49E the result was ND, 4.22, ND. For E23W/Y29L/F95M, the assay gave 3.82, 3.20, 3.09 (mean 3.37). For E23S/N52M/P54T, the assay gave 2.44, 2.10, 1.51 (mean 2.02).

For E23T/G24Y/D25R, the assay gave 2.53, 2.29, 2.56 (mean 2.46). The variant E23A/Q96G/F98A gave ND, 3.93, ND. For E23H/R28E, the assay gave 2.12, 2.02, 1.93 (mean 2.02). With E23V/Y31A/S93H the result was 1.95, 1.96, 2.06 (mean 1.99). The variant E23P/G94L gave ND, ND, ND. With E23W/Y29L/D91C the result was ND, 4.34, ND. The variant E23Q/D25I/S92C showed 2.39, 3.28, ND (mean 2.83).

The variant E23C showed 3.53, 2.83, 2.62 (mean 2.99). With E23F/A32N the result was 2.93, 2.83, 3.57 (mean 3.11). With E23W/L27N/N52M the result was 4.91, 3.99, 3.40 (mean 4.10). For E23M/G24T/R28W, the assay gave ND, ND, ND. The variant E23Y/R28S/P54E showed 2.80, 3.48, 3.00 (mean 3.09). The variant E23L/Y30C gave 2.53, 2.59, 2.15 (mean 2.42). For E23D/Y29E/R53W, the assay gave 5.36, 3.77, ND (mean 4.57).

With E23L/P54C the result was 2.83, 3.19, ND (mean 3.01). The variant E23P/N52P/F98K gave ND, 5.75, ND. The variant E23Q/F95P/V97S showed 2.83, 2.52, 3.17 (mean 2.84). The variant E23S/N33F/K50F gave 4.91, ND, 3.88 (mean 4.40). For E23P/D25K/P54G, the assay gave 2.94, 3.21, 2.44 (mean 2.87). With E23G/S26N/A32V the result was 2.55, 2.61, 2.21 (mean 2.46). With E23C/R53E/D91S the result was 3.93, 4.81, 4.13 (mean 4.29).

For E23N/G24C/N52L, the assay gave 4.28, 2.68, 2.79 (mean 3.25). The variant E23M/R53F/V97C gave 3.84, ND, ND. With E23I/N33G/R53G the result was 4.02, 3.81, ND (mean 3.92). With E23C/G24D/K50Q the result was 2.94, 2.85, ND (mean 2.90). The variant E23A/R28Q/P54H gave 3.00, 5.49, ND (mean 4.25). For E23I/Y30E/K50S, the assay gave 2.88, 3.16, 2.97 (mean 3.00). For E23P/G49S/R90T, the assay gave 5.29, ND, 4.72 (mean 5.00).

For E23K/Y29R/Q96Y, the assay gave 2.97, 2.97, 2.82 (mean 2.92). With E23I/N52W/S93W the result was ND, 3.66, ND. For E23G/Y31N/G94P, the assay gave ND, 3.41, 4.44 (mean 3.93). For E23V/G24A/R28Q, the assay gave 2.46, 2.76, 2.21 (mean 2.48).

Picked from the list: the 5 lowest averages where every replicate gave a value.

For E23I/Y29R/Y30E, the assay gave 1.46, 1.47, 1.13 (mean 1.36).
For E23V/Y31A/S93H, the assay gave 1.95, 1.96, 2.06 (mean 1.99).
For E23S/N52M/P54T, the assay gave 2.44, 2.10, 1.51 (mean 2.02).
For E23H/R28E, the assay gave 2.12, 2.02, 1.93 (mean 2.02).
For E23Y/S26P, the assay gave 2.79, 2.35, 1.76 (mean 2.30).

Nonspecific signal, from three strains lacking the peptide, appeared in 28% of pairings of library AAYL52, centred on 3.91 (5% of these signals below 2.90); values are not corrected for it. In this assay the parent's reference entry averaged 2.31; its copy inside this library read 2.25.